Measured affinities in a library of Ab-14 light chain variants

The measurements come from Li et al. 2023 (doi:10.1038/s41467-023-39022-2) through the FLAb antibody collection.

The target is the same throughout: PDVDLGDISGINAS, from the HR2 region of SARS-CoV-2 spike.

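The starting antibody came from a phage panning campaign against this peptide. Designed CDR sequences, proposed from the first random library and measured here. Group labels follow the data file (En: ensemble of fine-tuned language models; GP: Gaussian process model; HC: hill climbing; Gen: genetic algorithm; Gibbs: Gibbs sampling; a sequence that several methods proposed may carry one label only). The assay is AlphaSeq: two haploid yeast populations carry antibody and antigen on their surface. After mating in shaken culture at 30 °C for 16 h, diploids were selected and their barcode pairs sequenced. Each replicate has its own calibration line, from reference interactions of the BCL2 family. The assay was run in six technical replicates.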

Parent: Ab-14, a human scFv built as VH, a 15-residue (Gly4Ser)3 linker, VL. Only the CDRs of the light chain vary.
VH: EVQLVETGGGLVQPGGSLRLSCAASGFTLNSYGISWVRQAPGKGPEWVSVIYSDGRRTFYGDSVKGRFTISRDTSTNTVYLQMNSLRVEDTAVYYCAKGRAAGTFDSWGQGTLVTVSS
VL: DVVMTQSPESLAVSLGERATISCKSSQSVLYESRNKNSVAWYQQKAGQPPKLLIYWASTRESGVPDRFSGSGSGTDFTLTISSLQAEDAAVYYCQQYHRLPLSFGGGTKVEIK

Sequences are complete VL domains.
This list holds designs with more than six substitutions.
Values are apparent Kd, the geometric mean of the replicates that gave a signal; lower means stronger binding.
An entry "nd" has no value in the source: the pair was not observed among the diploids in any replicate. This suggests poor binding but is not conclusive.
Three control strains display no target. For all light chain designs, 4% of the pairings with them gave a signal, with a median of 430 nM and one signal in twenty below 38 nM, so weak values seen in few replicates may be background.
A sequence measured in both rounds can read differently, since the two assays cover different ranges.
The authors averaged sequences with at least three values out of six and counted those with two or fewer as poor binders.

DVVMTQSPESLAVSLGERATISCSLFESEREELSVEQNIAWYQQKAGQPPKLLIYDGTEHMRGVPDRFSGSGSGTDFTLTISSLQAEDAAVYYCQQYFRLPLLFGGGTKVEIK [En_Gibbs]: 8.1 nM (5 of 6 replicates).
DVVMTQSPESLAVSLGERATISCDFALIQDSMGEAKNSIAWYQQKAGQPPKLLIYDRNTKAHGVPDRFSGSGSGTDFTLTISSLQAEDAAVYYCQQYSRLPLVFGGGTKVEIK [En_Gibbs]: 2.3 nM (6 of 6 replicates).
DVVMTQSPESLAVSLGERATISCMISQLYNMGQFAINSVAWYQQKAGQPPKLLIYQASIRNEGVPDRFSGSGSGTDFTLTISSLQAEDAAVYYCQQYDRLPLIFGGGTKVEIK [En_Gen]: 93 nM (6 of 6 replicates).
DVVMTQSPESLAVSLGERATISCHLYFPWQSGQDSMHNVAWYQQKAGQPPKLLIYNDSTLMTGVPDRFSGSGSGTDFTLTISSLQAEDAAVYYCQHYNRLPLSFGGGTKVEIK [En_Gibbs]: nd (0 of 6 replicates).
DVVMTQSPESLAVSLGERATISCKLPMKELQMSENTNNVAWYQQKAGQPPKLLIYDSAQKMKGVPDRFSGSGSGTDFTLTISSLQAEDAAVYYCQQYSRLPLMFGGGTKVEIK [En_Gibbs]: 830 pM (6 of 6 replicates).
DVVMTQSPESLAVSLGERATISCKLSQSQLYESRNSKNVAWYQQKAGQPPKLLIYNASTRVSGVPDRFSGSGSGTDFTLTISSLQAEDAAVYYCQQYHRLPLSFGGGTKVEIK [GP_Gibbs]: 530 pM (6 of 6 replicates).
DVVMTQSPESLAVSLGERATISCKISQMVRVGSTVSNSIAWYQQKAGQPPKLLIYEMETRANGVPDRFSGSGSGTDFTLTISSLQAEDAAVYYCQQYHRLPLAFGGGTKVEIK [En_Gen]: 6.7 nM (6 of 6 replicates).
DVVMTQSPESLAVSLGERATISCNLGYQQDGNGLQRQAVAWYQQKAGQPPKLLIYGVTMKEYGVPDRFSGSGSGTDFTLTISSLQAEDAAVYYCQYYGRLPLMFGGGTKVEIK [En_Gibbs]: 95 nM (6 of 6 replicates).
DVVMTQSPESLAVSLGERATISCTLGGAMHSQMHNTNSVAWYQQKAGQPPKLLIYDLTTRGNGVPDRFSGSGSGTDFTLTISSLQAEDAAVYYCQQYHRLPLSFGGGTKVEIK [En_Gen]: 5.9 nM (6 of 6 replicates).
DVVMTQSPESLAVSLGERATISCSLRHYFQGENGMRGSVAWYQQKAGQPPKLLIYNATIRDQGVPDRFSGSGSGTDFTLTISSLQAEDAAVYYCQQYFRLPLFFGGGTKVEIK [En_Gibbs]: 1.8 nM (6 of 6 replicates).
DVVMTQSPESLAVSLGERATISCTLSQMSGLEAVKHNSVAWYQQKAGQPPKLLIYENSTREKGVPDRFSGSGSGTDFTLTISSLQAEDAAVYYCQQYDRLPLAFGGGTKVEIK [En_Gen]: nd (0 of 6 replicates).
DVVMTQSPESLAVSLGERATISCTISQSFMMENQFKNSVAWYQQKAGQPPKLLIYQASTRENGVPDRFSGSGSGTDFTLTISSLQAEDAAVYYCQCYDRLPLSFGGGTKVEIK [En_HC]: 1.5 nM (6 of 6 replicates).
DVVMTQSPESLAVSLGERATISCKVAQGIYEGKRHSHNIAWYQQKAGQPPKLLIYEVSHLCDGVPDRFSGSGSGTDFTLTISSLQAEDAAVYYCQQYARLPLEFGGGTKVEIK [En_Gibbs]: 150 nM (4 of 6 replicates).
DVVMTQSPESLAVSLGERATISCKLQQSMLYESRWHNSVAWYQQKAGQPPKLLIYAASVRCDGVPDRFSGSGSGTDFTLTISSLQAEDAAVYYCQQYHRLPLSFGGGTKVEIK [GP_Gibbs]: 26 nM (6 of 6 replicates).
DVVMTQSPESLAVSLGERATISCMFSQGVMVGWLTRNSVAWYQQKAGQPPKLLIYNSSTRENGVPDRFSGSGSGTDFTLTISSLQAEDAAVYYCQQYDRLPLSFGGGTKVEIK [En_HC]: 8.1 nM (6 of 6 replicates).

Extract of 2 entries:

For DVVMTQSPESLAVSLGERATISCSLRHYFQGENGMRGSVAWYQQKAGQPPKLLIYNATIRDQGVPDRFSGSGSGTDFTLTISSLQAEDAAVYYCQQYFRLPLFFGGGTKVEIK [En_Gibbs], the assay gave 1.8 nM (6 of 6 replicates).
For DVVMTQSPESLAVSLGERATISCNLGYQQDGNGLQRQAVAWYQQKAGQPPKLLIYGVTMKEYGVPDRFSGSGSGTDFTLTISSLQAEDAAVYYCQYYGRLPLMFGGGTKVEIK [En_Gibbs], the assay gave 95 nM (6 of 6 replicates).